Consider 1 compound from patent US10822367B2, “Pharmaceutical composition for preventing or treating dementia and improving cognitive function, comprising glasswort extract” (priority 2017, dated 2020).

Amino acid sequences for entries named in this document (tags omitted). Residues count along the entry.
UniProt P22303, 32-614: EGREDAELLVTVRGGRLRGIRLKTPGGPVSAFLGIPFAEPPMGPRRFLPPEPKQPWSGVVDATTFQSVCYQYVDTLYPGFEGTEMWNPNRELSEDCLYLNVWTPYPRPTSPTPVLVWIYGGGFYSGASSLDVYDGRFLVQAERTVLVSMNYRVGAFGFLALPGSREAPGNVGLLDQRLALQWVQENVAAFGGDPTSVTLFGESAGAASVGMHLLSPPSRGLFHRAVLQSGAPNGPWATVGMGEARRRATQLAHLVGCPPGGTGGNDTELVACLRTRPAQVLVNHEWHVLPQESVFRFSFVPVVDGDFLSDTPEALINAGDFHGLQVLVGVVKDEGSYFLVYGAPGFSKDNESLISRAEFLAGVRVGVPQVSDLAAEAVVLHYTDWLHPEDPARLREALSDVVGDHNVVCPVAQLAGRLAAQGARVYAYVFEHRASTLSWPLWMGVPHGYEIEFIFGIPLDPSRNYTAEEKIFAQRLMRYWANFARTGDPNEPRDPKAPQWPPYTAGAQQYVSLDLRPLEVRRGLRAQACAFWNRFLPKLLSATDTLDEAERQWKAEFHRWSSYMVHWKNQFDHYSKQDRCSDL

This assay has as its target acetylcholine esterase (AChE) (Homo sapiens, UniProt P22303). Nature of the assay: Acetylcholine esterase inhibitory activity (partially corrected Ellman's coupled enzyme assay). The assay is classed as biochemical. An excerpt:
It has been reported that as the concentration of acetylcholine esterase (AChE) increases in the cerebral blood vessels, cholinergic neurotransmitters for neurons are deficient in neurons, causing memory and cognitive impairment. Therefore, the measurement of AChE inhibitory activity can be used as a tool for the development of a drug or health functional raw material for prevention and treatment of dementia or enhancement of cognitive ability. In the present invention, the AChE inhibitory activity of a desalted Salicornia europaea extract, a desalted Salicornia europaea enzymatic hydrolysis extract, or purified fractions obtained from a desalted Salicornia europaea extract were measured, and the measurement was conducted by partially correcting Ellman's coupled enzyme assay. […] The enzymatic reaction solution was incubated at 37° C. for 10 minutes, and then the absorbance was measured by a UV-VIS microreader at 410 nm. The AChE inhibitory activity was calculated as below by comparison between the absorbance (Ac) of a control group not containing a substrate and a sample and the absorbance (As) of a test group. *AChE inhibitory activity (%)=[1−(As/Ac)]×100 • Ac: absorbance of a control group, • As: absorbance of a sample group.
Background: In Ellman's method for cholinesterases, released thiocholine reacts with DTNB.

A word on the IC50: it is the concentration needed to halve the response being measured. Low values mean inhibition by little substance, high ones a need for much substance.

Molecules are shown by their SMILES. Several values for one entry are separate records, joined by “and”; a condition that tells them apart may be missing. Identical values can stand only once.

As for `COc1ccc2cc3[n+](cc2c1OC)CCc1cc2c(cc1-3)OCO2` [Berberine], the IC50 was 16.6 µM and 31.8 µM.
